Values of other authors in PMC11799299.

Target: eNOS 493-512 (Bos taurus) (UniProt P29473)

Kd: 0.2 nM
Substance: calmodulin (from UniProt P0DP23)
